Laboratory results reported in patent US11608342B2, “PDE9 inhibitors with imidazo triazinone backbone and imidazo pyrazinone backbone for treatment of peripheral diseases” (H. LUNDBECK A/S, priority 2015, dated 2023).

Details: mouse, 10 mg/kg subcutaneous

SMILES: C[C@@H]1CN(Cc2ncccn2)C[C@H]1c1nc2c(cnn2C2CCOCC2)c(=O)[nH]1 (single isomer, unassigned) [reference compound]
- Brain concentration after 30 minutes: 500 ng/mL
